## AlphaSeq binding of Ab-95 light chain variants to a spike HR2 peptide

From the AlphaSeq antibody data of Engelhart et al. 2022 (doi:10.1038/s41597-022-01779-4), copy in the FLAb collection.

All variants were tested on one target, the spike HR2 peptide PDVDLGDISGINAS (SARS-CoV-2).

Parent scFv Ab-95: VH joined to VL by a (GGGGS)3 linker. Changes lie in the light chain CDRs alone.
VH: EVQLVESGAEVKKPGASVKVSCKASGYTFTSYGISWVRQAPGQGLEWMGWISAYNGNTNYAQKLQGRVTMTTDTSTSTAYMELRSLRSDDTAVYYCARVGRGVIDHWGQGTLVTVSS
VL: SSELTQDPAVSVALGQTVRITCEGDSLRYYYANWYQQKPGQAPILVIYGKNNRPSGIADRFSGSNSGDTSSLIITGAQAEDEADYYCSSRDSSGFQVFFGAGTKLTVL

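The library (AAYL52) carries one to three amino acid substitutions per variant, with no insertions or deletions. AlphaSeq pools MATa yeast showing the antibodies with MATalpha yeast showing the peptide. The frequency of each diploid, read from paired DNA barcodes, reflects how well the two displayed proteins bind. Each replicate has its own calibration line, from reference interactions of the BCL2 family. The assay was run in three technical replicates.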

Positions count from residue 1 of the parent VL; D91M puts M in place of D. All variants listed here change F95 of the VL, counted from its first residue. Scale: log10 of Kd in nM, estimated from mating counts; low values are strong binders. The mean shown is taken over the replicates in which the pair was detected. An entry "nd" has no value in the source: the pair was not observed among the diploids in that replicate. This suggests poor binding but is not conclusive.

With D91M+F95I+V97S the result was 2.20, 3.04, 2.14 (mean 2.46; controls 0 of 9). The variant D25Q+D91K+F95V gave 3.98, nd, nd (controls 4 of 9). The variant N51R+N52Q+F95Q gave 3.57, 3.28, 2.79 (mean 3.21; controls 4 of 9). For G24Q+S88H+F95L, the assay gave 3.22, nd, 3.13 (mean 3.18; controls 2 of 9). With E23A+S26D+F95P the result was nd, 3.62, nd (controls 0 of 9). The variant Y30S+S89M+F95G gave 1.35, 1.25, 1.17 (mean 1.26; controls 2 of 9).

With Y31E+K50C+F95N the result was 2.32, 3.37, 2.94 (mean 2.88; controls 2 of 9). With G49M+F95I the result was nd, nd, nd (controls 4 of 9). The variant F95I gave 2.77, 2.31, 2.60 (mean 2.56; controls 2 of 9). The variant G24W+S88L+F95R showed nd, nd, 2.93 (controls 5 of 9). For A32G+R53C+F95C, the assay gave 4.30, 2.92, 4.03 (mean 3.75; controls 6 of 9). The variant R28F+F95K+Q96H showed 3.33, nd, nd (controls 3 of 9).

The variant G24P+P54L+F95I gave 3.74, 4.53, nd (mean 4.14; controls 3 of 9). The variant E23N+S89Q+F95N showed 2.77, 2.70, nd (mean 2.73; controls 0 of 9). With D25H+S26Q+F95E the result was 3.91, 3.78, nd (mean 3.84; controls 1 of 9). For N51Q+R53Q+F95D, the assay gave nd, 3.34, 3.76 (mean 3.55; controls 1 of 9). The variant R90I+F95P showed 2.32, 2.38, 2.03 (mean 2.24; controls 3 of 9). For S89G+F95Y+F98M, the assay gave 2.10, 2.24, 2.00 (mean 2.11; controls 1 of 9).

The variant Y29G+G94A+F95A showed nd, nd, 4.03 (controls 5 of 9). The variant S55K+F95C showed 3.61, nd, nd (controls 2 of 9). With D25V+G49R+F95Q the result was 5.29, nd, 3.62 (mean 4.45; controls 2 of 9). For Y31C+S92K+F95C, the assay gave 2.55, 2.17, 2.24 (mean 2.32; controls 1 of 9). With A32I+P54T+F95H the result was nd, nd, 2.68 (controls 1 of 9). The variant N52Y+F95S+F98L showed 2.77, 2.64, 2.34 (mean 2.58; controls 2 of 9).

The variant E23F+P54L+F95E showed 3.38, 3.31, 3.99 (mean 3.56; controls 3 of 9). The variant Y31M+G94Y+F95C gave 2.60, 2.24, 2.21 (mean 2.35; controls 2 of 9). The variant E23L+S26F+F95R showed 4.06, 3.31, 3.28 (mean 3.55; controls 7 of 9). The variant N33A+R53S+F95L showed 3.33, 3.49, 3.16 (mean 3.33; controls 5 of 9). With N33L+R90Q+F95I the result was 4.80, nd, nd (controls 0 of 9). The variant R28I+N52I+F95C gave 4.79, 4.88, 2.96 (mean 4.21; controls 3 of 9).

For N33D+G94N+F95D, the assay gave 4.42, nd, 4.19 (mean 4.31; controls 2 of 9). The variant A32C+F95M+F98K showed 4.12, 3.50, 4.28 (mean 3.96; controls 1 of 9). For R90D+F95E+V97R, the assay gave nd, nd, nd (controls 2 of 9). The variant D25K+S89I+F95K gave 4.00, 2.82, 4.22 (mean 3.68; controls 0 of 9). With N51F+F95E the result was 2.90, 3.60, 3.37 (mean 3.29; controls 4 of 9). The variant Y31D+N52S+F95Y gave 1.32, 1.11, 0.73 (mean 1.05; controls 5 of 9).

The variant A32H+F95C+V97H showed nd, 3.98, nd (controls 1 of 9). The variant S89W+S93I+F95G gave 2.92, nd, 3.51 (mean 3.21; controls 2 of 9). For D25Q+F95G+V97L, the assay gave nd, nd, nd (controls 1 of 9). The variant Y29A+F95K+V97D showed 2.98, 2.26, 2.31 (mean 2.52; controls 2 of 9). The variant E23W+N51E+F95V showed 2.95, 2.95, nd (mean 2.95; controls 0 of 9).

The last 5 entries again:

changes	log10 Kd, replicates	mean log10 Kd (nM)	control signals
A32H+F95C+V97H	nd, 3.98, nd	3.98	1 of 9
S89W+S93I+F95G	2.92, nd, 3.51	3.21	2 of 9
D25Q+F95G+V97L	nd, nd, nd	nd	1 of 9
Y29A+F95K+V97D	2.98, 2.26, 2.31	2.52	2 of 9
E23W+N51E+F95V	2.95, 2.95, nd	2.95	0 of 9

Empty control strains, which show no peptide, gave a signal in 28% of pairings with library AAYL52; the median was 3.91 and 95% of these signals were weaker than 2.90. No background was subtracted. For each scFv, signals with the empty controls are counted beside the result.